## Ab-14 heavy chain CDR variants: yeast mating affinities

Data: MIT Lincoln Laboratory AlphaSeq set, Engelhart et al. 2022, doi:10.1038/s41597-022-01779-4, as distributed in FLAb.

Target peptide (SARS-CoV-2 spike, HR2 region): PDVDLGDISGINAS

Ab-14 is the parent antibody, in scFv form: VH, then the linker GGGGSGGGGSGGGGS, then VL. The light chain is unchanged in all variants.
VH: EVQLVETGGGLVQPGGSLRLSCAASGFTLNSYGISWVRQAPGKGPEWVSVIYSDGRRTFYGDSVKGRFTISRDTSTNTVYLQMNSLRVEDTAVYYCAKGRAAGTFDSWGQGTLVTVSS
VL: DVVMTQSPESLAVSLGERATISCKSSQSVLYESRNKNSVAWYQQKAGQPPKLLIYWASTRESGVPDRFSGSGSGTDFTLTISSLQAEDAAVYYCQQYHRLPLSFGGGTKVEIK

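Phage display of a naive human antibody library on the peptide gave the parent. Library AAYL49 holds single substitutions and randomly drawn double and triple substitutions in the CDRs. The assay is AlphaSeq: two haploid yeast populations carry antibody and antigen on their surface. Mating (16 h, 30 °C) was followed by selection of diploids and sequencing of their barcodes. Scores were corrected for input abundance and mapped to Kd with protein pairs of known affinity run in the same pool. Each pool was mated in three replicate cultures.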

Changes read parent residue, position, new residue, counted from the first residue of the VH shown.
The read-out is the apparent dissociation constant on a log10 scale (nM): the lower, the stronger.
Replicates are averaged; those with no signal do not enter the mean.
A pair that was not seen in that replicate is written "n.d."; this usually means weak binding, but a binder can also be missed.
Nonspecific signal, from three strains lacking the peptide, appeared in 15% of pairings of library AAYL49, centred on 4.06 (5% of these signals below 2.83); values are not corrected for it. The control count says in how many pairings with the empty strains this scFv gave a signal, with their mean in brackets.

changes | log10 Kd (nM) by replicate | mean, log10 nM | empty controls
S35I/V50K/F105A | n.d. n.d. 3.47 | 3.47 | 2 of 9 (3.73)
T28I/A102W | n.d. n.d. n.d. | n.d. | 0 of 9
S53H/R100V/S107L | 1.66 1.41 1.91 | 1.66 | 0 of 9
V50M/F59R/D62A | n.d. 3.82 n.d. | 3.82 | 2 of 9 (2.85)
G33T/I34C/S63G | n.d. n.d. n.d. | n.d. | 4 of 9 (4.34)
F27W/R57T/F59P | 4.50 n.d. 3.99 | 4.24 | 3 of 9 (4.52)
T28N/S35F/D106H | n.d. n.d. n.d. | n.d. | 0 of 9
V50L/S53K/A102D | 4.21 n.d. n.d. | 4.21 | 2 of 9 (4.33)
S53I/S63Y/G103T | n.d. n.d. n.d. | n.d. | 1 of 9 (3.78)
Y32V/S35L/G103Q | 4.08 3.91 5.52 | 4.51 | 3 of 9 (4.52)
S31C/S35I/Y60N | n.d. n.d. n.d. | n.d. | 1 of 9 (3.97)
N30Y/Y52T/R56C | n.d. 3.48 n.d. | 3.48 | 2 of 9 (4.90)
V50S/Y52K/G61H | n.d. n.d. n.d. | n.d. | 2 of 9 (3.42)
I34K/D106S | 6.01 3.71 6.27 | 5.33 | 5 of 9 (4.24)
I34M/G55P/K65G | n.d. 2.68 3.24 | 2.96 | 1 of 9 (4.69)
V50G/D62L | n.d. n.d. n.d. | n.d. | 0 of 9
Y52Q/G61K/S63R | n.d. n.d. n.d. | n.d. | 2 of 9 (5.02)
N30D/F105G | n.d. 3.98 n.d. | 3.98 | 0 of 9
G33L/T58Y/G103R | n.d. n.d. 4.25 | 4.25 | 1 of 9 (3.47)
V50R/K65Y/G99W | n.d. n.d. n.d. | n.d. | 0 of 9
T28H/S35T/I51E | n.d. 4.29 n.d. | 4.29 | 1 of 9 (4.63)
I51D/R100C/F105W | 5.20 n.d. n.d. | 5.20 | 2 of 9 (3.58)
G26C/D62S/R100D | 3.07 n.d. n.d. | 3.07 | 0 of 9
S31T/S35M/R57G | n.d. n.d. n.d. | n.d. | 2 of 9 (3.21)
G33V/G55R/V64Y | 3.92 n.d. n.d. | 3.92 | 3 of 9 (3.48)
F27Y/Y52P/S107A | 3.34 n.d. 4.55 | 3.95 | 3 of 9 (3.29)
G26E/I51V/K65E | n.d. n.d. n.d. | n.d. | 1 of 9 (3.33)
S31M/G55L | n.d. 4.71 n.d. | 4.71 | 2 of 9 (3.96)
T58R/D62S/G99W | 4.50 3.86 n.d. | 4.18 | 2 of 9 (3.75)
I51C/T104C | n.d. n.d. n.d. | n.d. | 0 of 9
G26T/D54W/F105H | n.d. n.d. n.d. | n.d. | 0 of 9
I51F/S53I/R100H | 5.02 n.d. 5.08 | 5.05 | 6 of 9 (4.08)
N30D/G55R/D106N | 5.12 4.64 4.00 | 4.59 | 8 of 9 (5.21)